Each structure is given as a SMILES string.

By UniProt entry, the sequences of proteins in these tests, tags left out.
UniProt P04049, whole entry Y340E/Y341E: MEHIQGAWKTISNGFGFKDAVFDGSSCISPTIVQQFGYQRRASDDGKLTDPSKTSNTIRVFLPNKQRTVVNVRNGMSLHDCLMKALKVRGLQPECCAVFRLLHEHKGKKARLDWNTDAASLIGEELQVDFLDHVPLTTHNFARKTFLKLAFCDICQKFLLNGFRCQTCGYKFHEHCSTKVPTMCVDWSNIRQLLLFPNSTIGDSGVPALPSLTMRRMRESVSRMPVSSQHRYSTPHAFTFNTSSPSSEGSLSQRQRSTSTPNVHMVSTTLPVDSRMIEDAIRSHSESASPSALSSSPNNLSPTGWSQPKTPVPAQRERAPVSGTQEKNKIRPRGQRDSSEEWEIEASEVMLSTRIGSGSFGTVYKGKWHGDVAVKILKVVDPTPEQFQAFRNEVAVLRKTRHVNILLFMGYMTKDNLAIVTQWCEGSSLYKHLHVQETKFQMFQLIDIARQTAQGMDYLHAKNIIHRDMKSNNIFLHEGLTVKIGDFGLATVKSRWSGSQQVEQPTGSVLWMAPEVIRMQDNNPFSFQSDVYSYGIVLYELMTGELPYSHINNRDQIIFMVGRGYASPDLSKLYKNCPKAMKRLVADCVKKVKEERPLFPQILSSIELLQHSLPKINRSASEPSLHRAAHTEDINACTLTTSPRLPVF

One assay has as its target C-Raf FL (full-length C-Raf protein, Y340E and Y341E activating mutations) (Homo sapiens (Human), UniProt P04049, Y340E/Y341E). Type of assay: biochemical. The note with it: AlphaScreen, 60 min pre-incubation, 1 hour reaction; read-out: c-Raf FL IC-50. For orientation: In Alpha technology, singlet oxygen from a donor bead excites a nearby acceptor bead.
Regarding `Cc1ncc(NC(=O)c2ccnc(C(C)(F)F)c2)cc1-c1cncc(N2CCOCC2)n1` [Example 533, 2-(1,1-difluoroethyl)-N-(6-methyl-5-(6-morpholinopyrazin-2-yl)pyridin-3-yl)isonicotinamide], the IC50 is 0.6 nM.

Regarding `Cc1ncc(NC(=O)c2ccnc(C(C)(C)C#N)c2)cc1-c1cc(N2CCOCC2)nc(N[C@H](C)CO)n1` [Example 747, (R)-2-(2-cyanopropan-2-yl)-N-(5-(2-((1-hydroxypropan-2-yl)amino)-6-morpholinopyrimidin-4-yl)-6-methylpyridin-3-yl)isonicotinamide], the IC50 amounted to 3 nM.

With `Cc1ncc(NC(=O)c2ccnc(C(C)(C)F)c2)cc1-c1cc(N2CCOCC2)c(OC2CCOCC2)nn1` [Example 630, 2-(2-fluoropropan-2-yl)-N-(6-methyl-5-(5-morpholino-6-((tetrahydro-2H-pyran-4-yl)oxy)pyridazin-3-yl)pyridin-3-yl)isonicotinamide], the IC50 amounted to 0.8 nM.

Take `Cc1ccc(NC(=O)c2cccc(C(F)(F)F)c2)cc1-c1cc(N2CCOCC2)nc(N2CC(O)C2)n1` [Example 765, N-(3-(2-(3-hydroxyazetidin-1-yl)-6-morpholinopyrimidin-4-yl)-4-methylphenyl)-3-(trifluoromethyl)benzamide]: the IC50 is 0.2 nM.

Take `Cc1ccc(NC(=O)c2cc(CN(C)C)cc(C(F)(F)F)c2)cc1-c1cc(N2CCOCC2)n(C)c(=O)c1` [Example 497, 3-((dimethylamino)methyl)-N-(4-methyl-3-(1-methyl-6-morpholino-2-oxo-1,2-dihydropyridin-4-yl)phenyl)-5-(trifluoromethyl)benzamide]: the IC50 was found to be 0.5 nM.

Regarding `Cc1ccc(NC(=O)c2ccnc(C3(C#N)CC3)c2)cc1-c1cc(N2CCOCC2)c(=O)n(C)n1` [Example 659, 2-(1-cyanocyclopropyl)-N-(4-methyl-3-(1-methyl-5-morpholino-6-oxo-1,6-dihydropyridazin-3-yl)phenyl)isonicotinamide], the IC50 stood at 0.1 nM.

For `Cc1ccc(NC(=O)c2ccnc(C(C)(F)F)c2)cc1-c1cc(N2CCOCC2)nc(OC2CNC2)n1` [Example 779, N-(3-(2-(azetidin-3-yloxy)-6-morpholinopyrimidin-4-yl)-4-methylphenyl)-2-(1,1-difluoroethyl)isonicotinamide], the IC50 is 0.7 nM.

Turning to `CCN1CCN(c2cc(C(=O)Nc3ccc(C)c(-c4cc(N5CCOCC5)n(C)c(=O)c4)c3)cc(C(F)(F)F)c2)CC1` [Example 490, 3-(4-ethylpiperazin-1-yl)-N-(4-methyl-3-(1-methyl-6-morpholino-2-oxo-1,2-dihydropyridin-4-yl)phenyl)-5-(trifluoromethyl)benzamide], the IC50 was 0.4 nM.

For the compound `CCOc1nnc(-c2cc(NC(=O)c3ccnc(C(C)(C)C#N)c3)cnc2C)cc1N1CCOC[C@H]1C` [Example 623, (R)-2-(2-cyanopropan-2-yl)-N-(5-(6-ethoxy-5-(3-methylmorpholino)pyridazin-3-yl)-6-methylpyridin-3-yl)isonicotinamide], the IC50 is 9.3 nM.

As to `CCC(F)(F)c1cc(C(=O)Nc2ccc(C)c(-c3cc(N4CCOCC4)c(=O)n(C)n3)c2)ccn1` [Example 643, 2-(1,1-difluoropropyl)-N-(4-methyl-3-(1-methyl-5-morpholino-6-oxo-1,6-dihydropyridazin-3-yl)phenyl)isonicotinamide], the IC50 worked out at 0.3 nM.

For `Cc1ccc(NC(=O)c2ccc(CN)c(C(F)(F)F)c2)cc1-c1cc(N2CCOCC2)c(=O)n(C)c1` [Example 461, 4-(aminomethyl)-N-(4-methyl-3-(1-methyl-5-morpholino-6-oxo-1,6-dihydropyridin-3-yl)phenyl)-3-(trifluoromethyl)benzamide], the IC50 came to 2.1 nM.

The same assay, now with this note: AlphaScreen, 60 min pre-incubation, reaction 1 hour at room temperature; read-out: c-Raf FL IC-50.
As to `Cc1ccc(NC(=O)c2cc(C(C)(C)N)cc(C(F)(F)F)c2)cc1-c1cc(N2CCOCC2)c(=O)n(C)c1` [Example 908, 3-(2-aminopropan-2-yl)-N-(4-methyl-3-(1-methyl-5-morpholino-6-oxo-1,6-dihydropyridin-3-yl)phenyl)-5-(trifluoromethyl)benzamide], the IC50 was found to be 2.53 nM.

Turning to `Cc1ccc(NC(=O)c2cnnc(C(C)(C)C#N)c2)cc1-c1cc(NCCO)nc(N2CCOCC2)c1F` [Example 1012, 6-(2-cyanopropan-2-yl)-N-(3-(3-fluoro-6-((2-hydroxyethyl)amino)-2-morpholinopyridin-4-yl)-4-methylphenyl)pyridazine-4-carboxamide], the IC50 came out at 18.7 nM.

In the case of `Cc1ccc(NC(=O)c2ccnc(C(F)F)c2)cc1-c1cc(N2CCOCC2)nc(NCCO)c1F` [Example 1016, 2-(difluoromethyl)-N-(3-(3-fluoro-2-((2-hydroxyethyl)amino)-6-morpholinopyridin-4-yl)-4-methylphenyl)isonicotinamide], the IC50 amounted to 0.7 nM.

As for `Cc1ncc(NC(=O)c2cccc(C(F)(F)F)c2)cc1-c1cc(N2CCOCC2)nc(N2CC(O)C2)c1` [Example 1094, N-(2′-(3-hydroxyazetidin-1-yl)-2-methyl-6′-morpholino-[3,4′-bipyridin]-5-yl)-3-(trifluoromethyl)benzamide], the IC50 came to 0.82 nM.

With `Cc1ncc(NC(=O)c2cccc(C(F)(F)F)c2)cc1-c1cnc(C=C2CCOCC2)c(N2CCOCC2)c1` [Example 994, N-(6′-((dihydro-2H-pyran-4(3H)-ylidene)methyl)-2-methyl-5′-morpholino-[3,3′-bipyridin]-5-yl)-3-(trifluoromethyl)benzamide], the IC50 was determined as 0.66 nM.

Take `Cc1ncc(NC(=O)c2cccc(C(F)(F)F)c2)cc1-c1cnc(O[C@H](C)CO)c(N2CCOCC2)c1` [Example 1021, (R)—N-(6′-((1-hydroxypropan-2-yl)oxy)-2-methyl-5′-morpholino-[3,3′-bipyridin]-5-yl)-3-(trifluoromethyl)benzamide]: the IC50 worked out at 0.69 nM.

With `Cc1ccc(NC(=O)c2ccnc(C(C)(C)C#N)c2)cc1-c1cc(N2CCOCC2)nc(N2CCOCC2)c1` [Example 1113, 2-(2-cyanopropan-2-yl)-N-(3-(2,6-dimorpholinopyridin-4-yl)-4-methylphenyl)isonicotinamide], the IC50 was determined as 0.37 nM.

For `Cc1ccc(NC(=O)c2cccc(C(F)(F)F)c2)cc1-c1nc2c(c(N3CCOCC3)n1)S(=O)(=O)CC2` [Example 857, N-(4-methyl-3-(4-morpholino-5,5-dioxido-6,7-dihydrothieno[3,2-d]pyrimidin-2-yl)phenyl)-3-(trifluoromethyl)benzamide], the IC50 turned out to be 0.08 nM.

Regarding `CCOc1nnc(-c2cc(C(=O)Nc3ccnc(C(C)(F)F)c3)ccc2C)cc1N1CCOCC1` [Example 1020, N-(2-(1,1-difluoroethyl)pyridin-4-yl)-3-(6-ethoxy-5-morpholinopyridazin-3-yl)-4-methylbenzamide], the IC50 turned out to be 2.2 nM.

With `Cc1ncc(NC(=O)c2cc(C(C)(C)O)ccn2)cc1-c1cnc(OC(C)C)c(N2CCOCC2)c1` [Example 959, 4-(2-hydroxypropan-2-yl)-N-(6′-isopropoxy-2-methyl-5′-morpholino-[3,3′-bipyridin]-5-yl)picolinamide], the IC50 is 6.29 nM.

Regarding `Cc1ccc(NC(=O)c2ccnc(C(F)(F)F)c2)cc1-c1cc(N2CCOCC2)nc(N2CCC(O)C2)c1` (stereo not drawn) [Example 1130, N-(3-(2-(3-hydroxypyrrolidin-1-yl)-6-morpholinopyridin-4-yl)-4-methylphenyl)-2-(trifluoromethyl)isonicotinamide], the IC50 worked out at 0.67 nM.

Take `Cc1ncc(NC(=O)c2ccnc(C3CC3)c2)cc1-c1cc(N2CCOCC2)nc(N2CC(C)(O)C2)c1` [Example 1102, 2-cyclopropyl-N-(2′-(3-hydroxy-3-methylazetidin-1-yl)-2-methyl-6′-morpholino-[3,4′-bipyridin]-5-yl)isonicotinamide]: the IC50 amounted to 0.85 nM.

Regarding `Cc1ccc(NC(=O)c2cc(C(C)(C)F)ccn2)cc1-c1cc(N2CCOCC2)c(=O)n(C)c1` [Example 907, 4-(2-fluoropropan-2-yl)-N-(4-methyl-3-(1-methyl-5-morpholino-6-oxo-1,6-dihydropyridin-3-yl)phenyl)picolinamide], the IC50 is 0.94 nM.

Staying with this assay, now noted: Table 2; AlphaScreen, 1 hour reaction; read-out: c-Raf FL IC-50.
As to `Cc1ncc(NC(=O)c2cc(C3CC3)on2)cc1-c1cc(N2CCOCC2)c(=O)n(C)c1` [Example 380, 5-cyclopropyl-N-(1′,2-dimethyl-5′-morpholino-6′-oxo-1′,6′-dihydro-[3,3′-bipyridin]-5-yl)isoxazole-3-carboxamide], the IC50 stood at 2.6 nM.

In the case of `COc1ncc(-c2cc(NC(=O)c3cnnc(C(F)(F)F)c3)cnc2Cl)cc1N1CCOCC1` [Example 263, N-(2-chloro-6′-methoxy-5′-morpholino-[3,3′-bipyridin]-5-yl)-6-(trifluoromethyl)pyridazine-4-carboxamide], the IC50 stood at 3.3 nM.

As for `Cc1ccc(C(=O)Nc2ccccn2)cc1-c1cc(N2CCOCC2)c(=O)n(C)c1` [Example 432, 4-methyl-3-(1-methyl-5-morpholino-6-oxo-1,6-dihydropyridin-3-yl)-N-(pyridin-2-yl)benzamide], the IC50 was found to be 23.2 nM.

`Cc1ccc(NC(=O)c2cccc(C(F)(F)F)c2)cc1-c1ccnc(N2CCOCC2)c1` [Example 62, N-(4-methyl-3-(2-morpholinopyridin-4-yl)phenyl)-3-(trifluoromethyl)benzamide]: the IC50 is 0.2 nM.

As to `Cc1ncc(NC(=O)c2ccnc(C3(C#N)CC3)c2)cc1-c1cnc(N(C)C)c(N2CCOCC2)c1` [Example 266, 2-(1-cyanocyclopropyl)-N-(6′-(dimethylamino)-2-methyl-5′-morpholino-[3,3′-bipyridin]-5-yl)isonicotinamide], the IC50 worked out at 0.5 nM.

For the compound `Cc1ncc(NC(=O)c2cc(C(F)(F)F)ccn2)cc1-c1cnc(OCCO)c(N2CCOCC2)c1` [Example 301, N-(6′-(2-hydroxyethoxy)-2-methyl-5′-morpholino-[3,3′-bipyridin]-5-yl)-4-(trifluoromethyl)picolinamide], the IC50 was determined as 0.9 nM.

(Values after patent publication US9694016B2 (Novartis AG, priority 2013, dated 2017).)
